Values quoted from earlier work as cited in US6509030B2, “Cultured fish carotenoid and polyphenol added feed for improving fish body color tone and fish meat brilliance” (Toshiyuki Sakiura, priority 2000, dated 2003).
Like-named read-outs stand apart in the source and are kept apart here.

chemical stability, acidic: Stable | chemical stability, acidic (listed as proanthocyanidin): stable | chemical stability, basic (basic): Very unstable | chemical stability, neutral (neutral): A little unstable
Substance: proanthocyanidin
